Reference: ChEMBL document CHEMBL3399971

Amino acid sequences for entries named in this document (tags omitted).
UniProt Q3UVX5, whole entry: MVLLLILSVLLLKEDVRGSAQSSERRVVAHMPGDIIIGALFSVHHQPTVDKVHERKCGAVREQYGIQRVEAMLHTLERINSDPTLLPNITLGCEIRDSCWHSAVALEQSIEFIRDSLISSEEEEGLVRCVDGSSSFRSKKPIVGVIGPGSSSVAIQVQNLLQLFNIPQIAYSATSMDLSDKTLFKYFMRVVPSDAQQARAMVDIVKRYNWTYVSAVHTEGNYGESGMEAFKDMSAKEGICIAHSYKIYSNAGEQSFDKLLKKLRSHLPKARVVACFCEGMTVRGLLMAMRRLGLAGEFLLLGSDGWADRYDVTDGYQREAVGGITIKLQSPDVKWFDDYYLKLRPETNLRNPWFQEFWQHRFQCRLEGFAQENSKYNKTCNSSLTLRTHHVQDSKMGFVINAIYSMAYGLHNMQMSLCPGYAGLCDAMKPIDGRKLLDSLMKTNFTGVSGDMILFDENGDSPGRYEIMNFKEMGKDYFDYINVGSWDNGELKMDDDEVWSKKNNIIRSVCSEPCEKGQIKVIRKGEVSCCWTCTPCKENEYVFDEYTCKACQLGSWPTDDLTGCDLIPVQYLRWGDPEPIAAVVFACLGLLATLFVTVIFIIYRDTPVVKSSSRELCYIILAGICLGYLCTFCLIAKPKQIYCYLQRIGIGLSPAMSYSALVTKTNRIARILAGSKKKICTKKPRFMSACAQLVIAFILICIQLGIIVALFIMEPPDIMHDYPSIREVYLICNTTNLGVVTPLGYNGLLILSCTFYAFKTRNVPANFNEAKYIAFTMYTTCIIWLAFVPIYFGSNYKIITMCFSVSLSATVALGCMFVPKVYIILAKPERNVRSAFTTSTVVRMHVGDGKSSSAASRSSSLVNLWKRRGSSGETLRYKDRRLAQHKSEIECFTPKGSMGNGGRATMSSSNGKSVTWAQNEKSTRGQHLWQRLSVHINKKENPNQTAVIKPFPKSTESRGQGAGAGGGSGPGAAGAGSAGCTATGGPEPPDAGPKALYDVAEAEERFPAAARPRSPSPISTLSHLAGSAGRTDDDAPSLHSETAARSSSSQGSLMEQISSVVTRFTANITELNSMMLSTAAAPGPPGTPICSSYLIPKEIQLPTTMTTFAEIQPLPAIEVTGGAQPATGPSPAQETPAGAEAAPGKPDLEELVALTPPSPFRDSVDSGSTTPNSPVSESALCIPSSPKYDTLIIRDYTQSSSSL

Tests used:
[1] = Selectivity index, ratio of MNCC against mouse BV2 cells to IC50 for mGluR5 in mouse BV2 cells; assay type: functional, BV-2
[2] = molecular target: Metabotropic glutamate receptor 5 (Mus musculus, UniProt Q3UVX5); assay: Positive allosteric modulator activity at mGluR5 in mouse BV2 cells assessed as inhibition of nitric oxide production pre-treated 1 hr before lipopolysaccharide stimulation and measured 24 hrs post lipopolysaccharide stimulation by Griess reagent assay; assay type: cell-based, BV-2
Summary of the method: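 BV2 microglia grown in DMEM plus 10% FBS at 37°C, 5% CO2. Pretreated 1 h with compound in 0.02% DMSO (final), then stimulated with LPS 50 ng/ml for 24 h. Read-out is supernatant nitrite by Griess reagent as a proxy for NO. IC50 is the mean of three independent experiments.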

Row | SMILES | Selectivity Index [1] | IC50 [2] [µM]
1 | O=C(Nc1nc2ccccc2[nH]1)c1cccc([N+](=O)[O-])c1 | 34.6 | –
2 | O=C(Nc1nc2ccccc2[nH]1)c1ccncc1 | 20.2 | 49
